Results on eight compounds are retold here after ChEMBL document CHEMBL1122516, “Structure-activity relationships for reactivators of organophosphorus-inhibited acetylcholinesterase: quaternary salts of 2-[(hydroxyimino)methyl]imidazole” (1984).

This assay has as its system Anguilliformes. Put plainly: The compound was tested for % of maximum reactivation for GD-inhibited Eel AChE (Acetylcholinesterase) by oximes.

The compound `Cn1cc[n+](COCCCc2ccccc2)c1/C=N/O.[Cl-]` yielded an Rmax of 19.3%.
`CC(OC[n+]1ccn(C)c1/C=N/O)C(C)(C)C.[Cl-]` (stereo not drawn) gave an Rmax of 0.8%.
The compound `CCCCCCCCOC[n+]1ccn(C)c1/C=N/O.[Cl-]` displayed an Rmax of 9.3%.
The compound `Cn1cc[n+](COCc2ccccc2)c1/C=N/O.[Cl-]` yielded an Rmax of 25.5%.
Turning to `CCCCOC[n+]1ccn(C)c1/C=N/O.[Cl-]`, the Rmax came to 17.4%.
In the case of `Cn1cc[n+](COCc2cccc3ccccc23)c1/C=N/O.[Cl-]`, the Rmax amounted to 20.4%.
In the case of `CC(C)OC[n+]1ccn(C)c1/C=N/O.[Cl-]`, the Rmax stood at 9.8%.
The same measure for `Cn1cc[n+](COCC(C)(C)C)c1/C=N/O.[Cl-]`: 5.4%.
